Laboratory results taken from patent US12171744B2, “Pharmaceutical combinations for the treatment of cancer” (Presage Biosciences, Inc., priority 2016, dated 2024).

The chains behind the UniProt entries cited, without tags or fusion partners.
UniProt P50750, whole entry: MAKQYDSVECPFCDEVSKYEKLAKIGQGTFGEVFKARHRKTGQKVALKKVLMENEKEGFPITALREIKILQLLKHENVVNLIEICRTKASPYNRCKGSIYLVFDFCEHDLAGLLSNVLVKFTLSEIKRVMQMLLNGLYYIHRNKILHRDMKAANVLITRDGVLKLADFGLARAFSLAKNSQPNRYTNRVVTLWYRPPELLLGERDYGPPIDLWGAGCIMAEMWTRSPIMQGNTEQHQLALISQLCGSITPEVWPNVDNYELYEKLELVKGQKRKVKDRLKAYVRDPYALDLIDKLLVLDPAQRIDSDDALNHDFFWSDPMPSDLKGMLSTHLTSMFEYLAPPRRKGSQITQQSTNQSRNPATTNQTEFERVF

Biological target: CDK9 (Homo sapiens, UniProt P50750)
Experiment: Kinase inhibition profiling (filter binding assay with γ-33P-ATP)

CN1CC[C@H](c2c(O)cc(O)c3c(=O)cc(-c4ccccc4Cl)oc23)[C@H](O)C1 [flavopiradol, reference compound]
inhibition of CDK9: potent inhibitor
